Results reported in publication PMC4410366 (Biochemistry, 2015).

Target: recombinant murine iNOS (Mus musculus, UniProt P29477)
Assay: Irreversible inhibition kinetics
Type: biochemical

## CC(=N)NCCC[C@H](N)C(=O)O [Compound 4, N^5-(1-iminoethyl)-L-ornithine, reference compound]
  kinact: 0.00122 s⁻¹
  kinact/KI: 88.3 M⁻¹ s⁻¹
